Tested on: GPD1
Assay: Inducible knockdown of GPD1 in primary brain tumors, survival study
Type: in vivo, mouse
Details: primary brain tumors induced at birth, miRNA expression induced by Tamoxifen QDx10 at four weeks, versus WT tumor
Experimental: Survival study of tumor-bearing mice w/o GPD1-KD. The tumors were induced at birth. At the age of four weeks tamoxifen was injected for ten days to permanently activate the GPD1 miRNA and the symptom free time was measured.
Animals with existing primary brain tumors were treated with Tamoxifen (QDx10) to induce the expression of a miRNA against GPD1.

B1: miRNA against GPD1: miRNA against GPD1, expression induced by Tamoxifen in tumor-bearing mice; preferably nucleotide sequence of SEQ ID NO:1 (nucleic acid)
chain: GAAAGTTGGGTGTCCTGCATCAGGTTTTGGCCACTGACTGACCTGATGCACACCCAACTTT
modifications: MiRNA sequence for GPD1- knockdown
survival (symptom free time) of tumor-bearing mice with GPD1 knockdown: significant increase in survival | survival (symptom free time) of tumor-bearing mice with GPD1 knockdown (listed as GPD1 miRNA): survived significantly longer
